One compound from patent publication US20250177359A1, “COMPOUNDS FOR USE IN THE TREATMENT OF CANCER AND INFLAMMATORY CONDITIONS” (priority 2022, published 2025) can be followed below.

The chains behind the UniProt entries cited, without tags or fusion partners. Where a name states a change or a piece, a line headed by the entry shows the natural chain unless it says otherwise.
UniProt Q9UGN5: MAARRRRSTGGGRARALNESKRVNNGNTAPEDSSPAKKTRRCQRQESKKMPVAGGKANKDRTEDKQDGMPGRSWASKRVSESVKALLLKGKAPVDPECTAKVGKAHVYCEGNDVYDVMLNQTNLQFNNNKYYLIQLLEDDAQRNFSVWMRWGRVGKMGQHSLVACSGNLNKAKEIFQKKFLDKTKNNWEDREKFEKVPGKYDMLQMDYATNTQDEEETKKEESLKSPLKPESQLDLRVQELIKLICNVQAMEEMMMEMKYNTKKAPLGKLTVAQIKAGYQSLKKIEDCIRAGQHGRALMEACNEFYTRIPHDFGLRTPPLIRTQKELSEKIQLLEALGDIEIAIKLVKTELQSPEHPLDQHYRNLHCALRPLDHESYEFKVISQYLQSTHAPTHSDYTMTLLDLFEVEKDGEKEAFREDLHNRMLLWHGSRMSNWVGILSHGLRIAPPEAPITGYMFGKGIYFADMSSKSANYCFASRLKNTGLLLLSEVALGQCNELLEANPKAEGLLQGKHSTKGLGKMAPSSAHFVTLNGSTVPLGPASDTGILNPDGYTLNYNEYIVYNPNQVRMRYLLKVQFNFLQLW

The target in experiment [1] is T1, TNKS2 (Homo sapiens, UniProt Q9H2K2).
T1 sequence (Q9H2K2 1-1166): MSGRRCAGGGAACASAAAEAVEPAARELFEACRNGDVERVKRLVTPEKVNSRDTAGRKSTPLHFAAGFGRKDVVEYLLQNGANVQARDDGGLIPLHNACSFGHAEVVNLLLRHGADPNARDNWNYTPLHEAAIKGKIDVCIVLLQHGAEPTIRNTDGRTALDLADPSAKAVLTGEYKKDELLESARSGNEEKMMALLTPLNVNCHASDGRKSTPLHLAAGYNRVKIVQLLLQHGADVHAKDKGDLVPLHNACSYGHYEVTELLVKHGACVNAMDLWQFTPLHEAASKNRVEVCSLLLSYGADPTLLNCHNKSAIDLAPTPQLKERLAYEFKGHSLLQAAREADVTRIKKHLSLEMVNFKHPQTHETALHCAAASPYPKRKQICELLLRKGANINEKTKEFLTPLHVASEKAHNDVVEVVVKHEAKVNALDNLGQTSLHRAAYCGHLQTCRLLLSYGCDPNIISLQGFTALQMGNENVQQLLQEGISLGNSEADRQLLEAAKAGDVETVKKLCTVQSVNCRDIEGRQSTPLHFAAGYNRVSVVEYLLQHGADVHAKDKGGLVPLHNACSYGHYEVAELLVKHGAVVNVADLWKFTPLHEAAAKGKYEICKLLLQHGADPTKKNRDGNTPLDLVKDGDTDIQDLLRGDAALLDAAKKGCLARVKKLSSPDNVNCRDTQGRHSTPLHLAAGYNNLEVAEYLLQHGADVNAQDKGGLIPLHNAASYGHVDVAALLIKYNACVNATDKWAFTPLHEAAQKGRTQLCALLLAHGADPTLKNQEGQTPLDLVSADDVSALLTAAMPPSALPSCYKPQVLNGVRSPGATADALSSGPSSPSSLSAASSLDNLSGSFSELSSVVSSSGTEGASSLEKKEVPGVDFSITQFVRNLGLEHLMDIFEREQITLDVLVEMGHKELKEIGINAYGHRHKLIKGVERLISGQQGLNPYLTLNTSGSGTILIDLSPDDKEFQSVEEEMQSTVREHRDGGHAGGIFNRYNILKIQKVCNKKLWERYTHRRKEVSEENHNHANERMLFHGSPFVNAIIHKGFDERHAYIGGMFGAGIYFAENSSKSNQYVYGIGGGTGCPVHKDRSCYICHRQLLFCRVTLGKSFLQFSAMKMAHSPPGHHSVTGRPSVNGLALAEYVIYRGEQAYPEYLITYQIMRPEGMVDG
Conditions: read-out: TNKS2 IC50; NAD+ consumption assay; > less than 50% inhibition at highest concentration, >> no inhibition. The procedure: (§1) All starting materials, reagents, and solvents were purchased from common commercial suppliers and were used as such without further purification. […] Organic solutions were dried over anhydrous Na2SO4 and concentrated with rotary evaporator at low pressure. All the reactions were routinely checked by thin-layer chromatography (TLC) on silica gel 60F254 (Merck) and visualized by using UV and iodine. Flash chromatography separations were carried out on Merck silica gel 60 (mesh 230-400) or by using automated Buchi Reveleris X2-UV with column FP Ecoflex Si 12 g. Yields were of purified products and were not optimized. ^1HNMR spectra were recorded at 400 MHz (Bruker Avance DRX-400), while ^13CNMR spectra were recorded at 101 MHz (Bruker Avance DRX-400). Chemical shifts are given in ppm (δ) relative to TMS. […] Mating constant (J) are reported in Hz. The purity of the tested compounds was evaluated by HPLC analysis using Jasco LC-4000 instrument equipped with a UV-Visible Diode Array Jasco-MD4015 (Jasco Corporation, Tokyo, Japan), and XTerra MS C18 column, 5 μm×4.6 mm×150 mm (Waters Corporation, Massachusetts, USA). Chromatograms were analyzed by ChromNAV2.0 Chromatography Data System software. […] The peak retention time (ret. time) is given in minutes. […] 1-Isobutoxy-4-methoxy-2-nitrobenzene (113). Isobutyl alcohol (0.6 mL, 6.43 mmol) was added, under nitrogen atmosphere at 0° C., to a suspension of NaH (0.26 g, 6.43 mmol) in dry DMF. After 15 minutes, 1-fluoro-4-methoxy-2-nitrobenzene 112 (1 g, 5.84 mmol) was also added and the reaction mixture was stirred at 80° C. for 4 h. […] (2-Isobutoxy-5-methoxyphenyl)amine (114). Zn (1.57 g, 24 mmol) and NH4C1 (2.45 g, 40 mmol) were added to a solution of 113 (0.46 g, 2 mmol) in acetone/H2O (50 mL, ratio 5:1). The reaction mixture was stirred at 60° C. for 3 h and, then, it was filtered over celite. […] N-(2,5-diethoxyphenyl)thiourea (55). […] N-(2-isobutoxy-5-methoxyphenyl)thiourea (115). […] A solution of Br2 (0.2 mL, 3.3 mmol) in CHCl3 (5 mL) was slowly added to a suspension of 45 (0.6 g, 3.3 mmol) in CHCl3 (13 mL), at 0° C. The reaction mixture was stirred at r.t. for 4 h and, then, a 10% solution of Na2SO3 in water was added to the mixture. […] 4,7-Diethoxy-1,3-benzothiazol-2-amine (66). […] 4-Isobutoxy-7-methoxy-1,3-benzothiazol-2-amine (116).

In experiment [2] the target is T2, PARP2 (Homo sapiens, UniProt Q9UGN5).
T2 construct: made in house
It is filed as biochemical. Conditions: NAD+ consumption assay; > less than 50% inhibition at highest concentration, >> no inhibition. On the procedure: as §1

The structures appear in SMILES notation.

Regarding `COc1ccc(OC)c2c1SC1=NNC(NC(=O)c3ccc(Cl)cc3)N12` (centres unmarked) [Compound 29, 4-Chloro-N-(5,8-dimethoxy-2,3-dihydro[1,2,4]triazolo[3,4-b][1,3]benzothiazol-3-yl)benzamide], the IC50 in experiment [1] was found to be 20 µM; in experiment [2], 44 µM.

The term IC50 denotes the point on the concentration scale where inhibition reaches its midpoint.
